The list is not random: actives were taken first. Their share in the collection is about 2.3%.
Nrf2 block: Nrf2 pathway inhibition; 2.1% of 360,000 active; Potency, µM (highest dose often 46 µM), for the others: at the top dose activity change, negative = inhibition, actives largely listed as inhibitors; A549 ARE-Fluc reporter, luciferase luminescence, 18-24 h; further: potency means the concentration at half of the fitted maximal effect; on the % scale 0 is the no-effect control and ±100 the full control effect; nearly all actives have a fitted effect of over 60% in size
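A549 ARE_Fluc cells, 5000/well, 5% FBS OPTI-MEM; compounds in dose-response, 18-24 h at 37 °C/5% CO2; CellTiter-Fluor viability read (Ex 405/Em 525), then BugLite luciferase luminescence = Nrf2 activity.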
Glioma ERSR ind: inducers of ER stress response in human glioma cells | 0.02% of 420,000 active | Potency, µM, inactives show at the highest dose activation, hits mostly activators | U87-MG GRP78 promoter luciferase reporter, 16 h; further: potency means the concentration at half of the fitted maximal effect; series mostly up to about 76 µM; % of control where 0% means no effect; nearly all actives have a fitted effect of over 35% in size
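Stably transfected U87-MG glioma cells carrying a GRP78-based luciferase sensor; 16 h compound incubation. Luminescence end-point read 10 min after Bright-Glo addition at room temperature.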
miR-21 reporter: miR-21 reporter, rising signal | HeLa miR-21 FLuc reporter, luciferase, 48 h | Potency, µM (highest dose often 38.3 µM), for inactives: at the top dose reporter change, positive = more light | 340,000 tested, under 10 active | AID 2288; active = well fitted rising curve with a large enough effect; inconclusive = small, poorly fitted or top-dose-only effect; inactive = no such curve, though single readings can be large or run the other way;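 further: % of control where 0% means no effect; miR-21 action dims this reporter so a rising signal means less miR-21 action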
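HeLa cells stably expressing CMV-driven firefly luciferase with a downstream miR-21 binding sequence, endogenously expressing miR-21, were treated with titrations (up to about 40uM final) for 48 hours at 37 degree Celsius. Luciferase luminescence was read after lysis.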
Nrf2 ARE act: activates Nrf2 signaling; Potency, µM (top dose mostly 46.1 µM), for the others: at the highest dose activation, hits mostly activators; AREc32 ARE-luciferase reporter (MCF7-derived line), luminescence, 24 h; 0.31% of 410,000 active; further: potency means the concentration at half of the fitted maximal effect; % of control where 0% means no effect; nearly all actives have a fitted effect of over 65% in size
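Reporter line AREc32 (ARE-Fluc), seeded overnight in OPTI-MEM with 5% FBS; compound pin-transferred, 24 hr at 37 deg C, 5% CO2; luminescent read-out.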
Mito fusion act: blocks mitochondrial division or promotes mitochondrial fusion. S. cerevisiae fusion-defective mutant growth rescue, CellTiterGlo 48 h. Potency, µM (doses to about 46.1 µM), without a hit: at the top dose growth rescue (activation), actives largely listed as activators. 0.23% of 320,000 active; further: potency means the concentration at half of the fitted maximal effect; % of control where 0% means no effect; nearly all actives have a fitted effect of over 45% in size
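S. cerevisiae fusion-defective temperature-sensitive mutants (e.g. fzo1-1, mgm1-5) grown 48 h at 37C in YPEG (ethanol/glycerol non-fermentable) medium with 23 nl compound per well; growth rescue read as CellTiterGlo luminescence.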
A549 viability: A549 cytotoxicity, counter-screen for Nrf2 inhibitors. 0.16% of 390,000 active. Potency, µM (top dose mostly 46 µM), inactives show at the highest dose activity change, negative = cytotoxicity, usual class: inhibitors. A549 ARE-Fluc cells, CellTiter-Fluor viability, 18-24 h; further: potency means the concentration at half of the fitted maximal effect; on the % scale 0 is the no-effect control and ±100 the full control effect
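A549 ARE-Fluc cells in 5% FBS OPTI-MEM, 5000 cells/well, rested 2 h then exposed to compounds in concentration-response for 18-24 h at 37 °C. Viability by CellTiter-Fluor fluorescence (Ex 405/Em 525) after 30 min; luciferase luminescence (BugLite, 15 min, RT) read afterwards.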
The depositor's hits bear a star; [ ] = dose if it differs, or a comment. Unless noted, the call rests on the fitted dose curve; in most records, active means well fitted curve in the direction sought with a large enough effect; inconclusive means small, poorly fitted or top-dose-only effect, or another doubt; inactive means no such curve, though single readings can be large; an effect the other way counts as inactive or inconclusive.

Cc1ccc(NC(=O)c2sc3nc4c(c(-c5ccco5)c3c2N)CCC4)cc1 was read as Nrf2 block 18.4µM*, Glioma ERSR ind -11.9%, miR-21 reporter -14.1%, Nrf2 ARE act -0.4%, Mito fusion act -3.2% and A549 viability -12.2%.
For Nc1c(C(=O)Nc2ccc(F)cc2)sc2nc(-c3ccco3)ccc12 the results were Nrf2 block -6.3%, Glioma ERSR ind 1.9%, miR-21 reporter -18.1%, Nrf2 ARE act inconclusive, Mito fusion act 5.6% and A549 viability 15.6%.
`Nc1c(C(=O)Nc2ccccc2)sc2nc3c(c(-c4ccco4)c12)CCC3` gave Nrf2 block inconclusive, Glioma ERSR ind -1.0%, miR-21 reporter -24.7%, Nrf2 ARE act 4.2%, Mito fusion act 0.1% and A549 viability -0.9%.
`CC(C)CN1C(=O)C(=O)N(CC(=O)NC(C)CCc2ccccc2)C1=O` (stereo not drawn) gave Nrf2 block inconclusive, Glioma ERSR ind -2.2%, Nrf2 ARE act 0.0%, Mito fusion act 17.2% and A549 viability 0.9%.
For FC(F)(F)c1nnc2ccc(Cl)nn12 the results were Nrf2 block 12.8%, Glioma ERSR ind -5.3%, miR-21 reporter inconclusive, Nrf2 ARE act -0.4%, Mito fusion act -13.7% and A549 viability -1.3%.
C[C@H](CO)N1C[C@H](C)[C@@H](CN(C)Cc2cccnc2)Oc2cc(-c3cccnc3)ccc2S1(=O)=O was read as Glioma ERSR ind -0.4% and Nrf2 ARE act -0.6%.
Screening COc1ccc2occ(C(=O)c3cccs3)c2c1 returned Nrf2 block inconclusive, Glioma ERSR ind 1.9%, miR-21 reporter -56.7%, Nrf2 ARE act 10µM*, Mito fusion act 1.9% and A549 viability -0.5%.
For COc1ccc2occ(C(=O)c3ccc(N)cc3)c2c1 the results were Nrf2 block inconclusive, Glioma ERSR ind -2.8%, miR-21 reporter -12.3%, Nrf2 ARE act -0.4%, Mito fusion act 0.4% and A549 viability -3.5%.
For CCCCCCCCOc1ccc(C(=O)O)cc1 the results were Nrf2 block inconclusive, Glioma ERSR ind 3.6%, Nrf2 ARE act -0.8%, Mito fusion act 12.6µM* and A549 viability inconclusive.
CCCCOc1ccc(C(=O)O)cc1 was read as Nrf2 block 9.1%, Glioma ERSR ind 0.4%, miR-21 reporter -0.3%, Nrf2 ARE act -0.1%, Mito fusion act 4.1% and A549 viability 0.6%.
`CC(/C=C/c1ccco1)=N\NC(=O)CNc1ccc2ccccc2c1` gave Nrf2 block 0.0%, Glioma ERSR ind 1.9%, miR-21 reporter -7.0%, Nrf2 ARE act 10µM*, Mito fusion act -0.3% and A549 viability 0.0%.
Cc1ncc(CO)c(/C=N/Nc2ccc(C(F)(F)F)cn2)c1O was read as Nrf2 block 10.3µM*, Glioma ERSR ind -5.1%, miR-21 reporter inconclusive, Nrf2 ARE act -0.5%, Mito fusion act -14.1% and A549 viability inconclusive.
`Cc1ncc(CO)c(/C=N/NC(=S)Nc2ccc(F)cc2)c1O` gave Nrf2 block inconclusive, Glioma ERSR ind -2.8%, miR-21 reporter 26.0%, Nrf2 ARE act -0.9%, Mito fusion act -1.7% and A549 viability -4.2%.
For CC(C)c1ccc(S(=O)(=O)Nc2cc3c(cc2NCc2ccccc2)n(C)c(=O)n3C)cc1 the results were Nrf2 block 25.9µM*, Glioma ERSR ind -1.2%, miR-21 reporter -4.5%, Nrf2 ARE act 6.4% and A549 viability -10.3%.
Cc1ccc(S(=O)(=O)Nc2cc3c(cc2NCc2ccccc2)n(C)c(=O)n3C)c(C)c1 was read as Nrf2 block 11.9%, Glioma ERSR ind 2.5%, miR-21 reporter -49.3%, Nrf2 ARE act inconclusive and A549 viability -4.0%.

Reprinted at random: three records from the list
Cc1ncc(CO)c(/C=N/Nc2ccc(C(F)(F)F)cn2)c1O was read as Nrf2 block 10.3µM*, Glioma ERSR ind -5.1%, miR-21 reporter inconclusive, Nrf2 ARE act -0.5%, Mito fusion act -14.1% and A549 viability inconclusive.
For CCCCCCCCOc1ccc(C(=O)O)cc1 the results were Nrf2 block inconclusive, Glioma ERSR ind 3.6%, Nrf2 ARE act -0.8%, Mito fusion act 12.6µM* and A549 viability inconclusive.
C[C@H](CO)N1C[C@H](C)[C@@H](CN(C)Cc2cccnc2)Oc2cc(-c3cccnc3)ccc2S1(=O)=O was read as Glioma ERSR ind -0.4% and Nrf2 ARE act -0.6%.

Carrying on:
Cn1c(=O)n(C)c2cc(NS(=O)(=O)c3ccc(F)cc3)c(NCc3ccccc3)cc21 was read as Nrf2 block inconclusive, Glioma ERSR ind 2.0%, miR-21 reporter -64.0%, Nrf2 ARE act 12.6µM* and A549 viability 2.5%.
`Cc1ccc(S(=O)(=O)Nc2cc3c(cc2NCc2ccccc2)n(C)c(=O)n3C)cc1` gave Nrf2 block inconclusive, Glioma ERSR ind 0.9%, miR-21 reporter -27.4%, Nrf2 ARE act inconclusive and A549 viability -15.7%.
Cc1cc(C)cc(-n2ccn(Cc3ccc(F)cc3)c(=O)c2=O)c1 was read as Nrf2 block 23.1µM*, Glioma ERSR ind -4.1%, miR-21 reporter inconclusive, Nrf2 ARE act 0.6% and A549 viability 0.5%.
`Cc1cc(C)cc(-n2ccn(CC(=O)c3ccc(F)cc3)c(=O)c2=O)c1` gave Nrf2 block inconclusive, Glioma ERSR ind -1.5%, miR-21 reporter -1.7%, Nrf2 ARE act 0.2% and A549 viability 2.3%.
CC(C)OC(=O)n1c(=S)oc2ccccc21 was read as Nrf2 block 14.0%, Glioma ERSR ind -5.5%, miR-21 reporter -9.1%, Nrf2 ARE act 1.8%, Mito fusion act -1.1% and A549 viability 0.4%.
For CCCCC(=O)/C=C/n1c(=S)oc2ccccc21 the results were Nrf2 block inconclusive, Glioma ERSR ind -4.0%, miR-21 reporter 20.4%, Nrf2 ARE act 10µM*, Mito fusion act 0.9% and A549 viability -4.2%.
`COc1ccc(-c2cc(C)no2)cc1S(=O)(=O)N1CC(=O)Nc2ccccc21` gave Nrf2 block inconclusive, Glioma ERSR ind 11.7%, miR-21 reporter -5.5%, Nrf2 ARE act 5.4%, Mito fusion act -3.6% and A549 viability 5.4%.
`COC(=O)c1cc(NC(=O)c2cccc(C(F)(F)F)c2)c(=O)oc1C/C=N/OCc1cccc(Cl)c1Cl` gave Nrf2 block -10.2%, Glioma ERSR ind -4.0%, miR-21 reporter -4.4%, Nrf2 ARE act 12.6µM*, Mito fusion act 0.2% and A549 viability -0.7%.
COc1ccccc1NC(=O)CC1C(=O)NCCN1C(=O)Nc1ccccc1 (stereo not drawn) was read as Nrf2 block 18.4%, Glioma ERSR ind -2.4%, miR-21 reporter -1.7%, Nrf2 ARE act 4.3%, Mito fusion act 0.6% and A549 viability -0.8%.
`CCOC(=O)/C(C#N)=C1\Nc2ccccc2N=C1N(CC(C)C)CC(C)C` gave Nrf2 block 8.2%, Glioma ERSR ind -3.0%, miR-21 reporter 1.4%, Nrf2 ARE act -0.7%, Mito fusion act 15.2% and A549 viability -3.8%.
Screening CCOC(=O)/C(C#N)=C1/C=C(C)NC(c2ccccc2O)=N1 returned Nrf2 block 13µM*, Glioma ERSR ind -3.3%, miR-21 reporter 4.1%, Nrf2 ARE act 0.1%, Mito fusion act 12.2% and A549 viability -3.9%[1.84 µM].

Assay outcomes from PubChem.
